# Yeast mating assay 1: variants of the scFv Ab-14

Reference: Engelhart et al. 2022, doi:10.1038/s41597-022-01779-4. File: FLAb, binding data.

Target: peptide PDVDLGDISGINAS, taken from heptad repeat 2 (HR2) of SARS-CoV-2 spike.

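Phage display of a naive human antibody library on the peptide gave the parent. AAYL50 was designed without a model: most single CDR substitutions and a random sample of double and triple ones. AlphaSeq pools MATa yeast showing the antibodies with MATalpha yeast showing the peptide. Mating (16 h, 30 °C) was followed by selection of diploids and sequencing of their barcodes. Scores were corrected for input abundance and mapped to Kd with protein pairs of known affinity run in the same pool. The assay was run in three technical replicates.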

Parent scFv Ab-14: VH joined to VL by the linker GGGGSGGGGSGGGGS. Changes lie in the light chain CDRs alone.
VH: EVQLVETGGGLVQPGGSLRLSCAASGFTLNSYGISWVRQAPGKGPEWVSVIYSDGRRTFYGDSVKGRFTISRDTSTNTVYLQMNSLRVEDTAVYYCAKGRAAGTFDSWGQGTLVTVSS
VL: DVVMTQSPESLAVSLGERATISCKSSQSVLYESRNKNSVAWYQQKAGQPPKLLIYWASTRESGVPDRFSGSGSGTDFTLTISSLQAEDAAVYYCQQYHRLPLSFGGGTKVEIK

Substitutions are numbered in sequence along the VL above, starting at 1 (not Kabat).
This list gathers variants with a substitution at V39 (VL, numbered from residue 1).
Each Kd is an estimate from the mating assay, the geometric mean of the replicates in which the pair was seen; lower is stronger.
An entry "no signal" has no value in the source: the pair was not observed among the diploids in any replicate. This suggests poor binding but is not conclusive.
In this assay the parent's reference entry averaged 4.4 nM; its copy inside this library read 48 nM.
Nonspecific signal, from three strains lacking the peptide, appeared in 18% of pairings of library AAYL50, centred on 15 µM (5% of these signals below 970 nM); values are not corrected for it. For each scFv, signals with the empty controls are counted beside the result.

The variant L30R/V39C/L102A gave 6.9 µM (2 of 3 replicates; controls 2 of 9). For K24G/S26Y/V39R, the assay gave 48 µM (1 of 3 replicates; controls 0 of 9). The variant V39M/A57M/T59A showed 300 µM (2 of 3 replicates; controls 7 of 9). For Q27Y/V29T/V39T, the assay gave no signal (0 of 3 replicates; controls 0 of 9). For R34Y/N35I/V39D, the assay gave 6.2 µM (1 of 3 replicates; controls 6 of 9). With S26I/V39P/R99I the result was no signal (0 of 3 replicates; controls 2 of 9). For R34M/V39G, the assay gave no signal (0 of 3 replicates; controls 1 of 9). The variant Y31S/V39T/S62Y gave no signal (0 of 3 replicates; controls 2 of 9).

The variant E32N/V39C gave 230 µM (1 of 3 replicates; controls 4 of 9). With S26C/S33D/V39I the result was 3.2 nM (3 of 3 replicates; controls 1 of 9). The variant K24E/S28V/V39E showed 2.9 µM (2 of 3 replicates; controls 3 of 9). For V39E/S62W/L102D, the assay gave 1.7 µM (1 of 3 replicates; controls 0 of 9). The variant V39N/P101R/S103V gave no signal (0 of 3 replicates; controls 0 of 9). The variant V39E/R60E/H98E showed 300 µM (1 of 3 replicates; controls 1 of 9). With K24P/V39N the result was 5.8 µM (1 of 3 replicates; controls 1 of 9). The variant Y31T/V39E/R60P showed 54 µM (3 of 3 replicates; controls 6 of 9).

The variant V29D/V39R showed no signal (0 of 3 replicates; controls 0 of 9). For V39P/A57H, the assay gave no signal (0 of 3 replicates; controls 4 of 9). The variant R34G/K36M/V39G gave 14 µM (1 of 3 replicates; controls 2 of 9). The variant Q27C/V39K/H98I showed 5.1 µM (3 of 3 replicates; controls 2 of 9). With S28H/V39Y/P101C the result was 6.8 µM (1 of 3 replicates; controls 0 of 9). The variant S25Y/V39K/L100Q showed no signal (0 of 3 replicates; controls 0 of 9). With K36Q/V39G the result was no signal (0 of 3 replicates; controls 1 of 9). With V39F/W56K the result was 13 nM (3 of 3 replicates; controls 1 of 9).

The variant S25D/V39T/Y97N showed no signal (0 of 3 replicates; controls 0 of 9). The variant E32Q/V39Q/S62A gave 10 µM (1 of 3 replicates; controls 1 of 9). The variant V39H/R60D/E61L gave no signal (0 of 3 replicates; controls 3 of 9). For S25K/V39A/P101Q, the assay gave no signal (0 of 3 replicates; controls 1 of 9). For L30G/V39H/Q96L, the assay gave no signal (0 of 3 replicates; controls 1 of 9). With V39G/Q96A/R99K the result was 370 nM (3 of 3 replicates; controls 1 of 9). For S38G/V39S/T59K, the assay gave 13 µM (2 of 3 replicates; controls 5 of 9). For K24E/L30K/V39K, the assay gave no signal (0 of 3 replicates; controls 1 of 9).

The variant S33C/V39R/T59E showed no signal (0 of 3 replicates; controls 4 of 9). With V39N the result was 2.8 µM (1 of 3 replicates; controls 1 of 9).

Excerpt, the final 4 entries:

changes	Kd	replicates with signal	empty controls
S38G/V39S/T59K	13 µM	2/3	5/9
K24E/L30K/V39K	no signal	0/3	1/9
S33C/V39R/T59E	no signal	0/3	4/9
V39N	2.8 µM	1/3	1/9